Literature values in PMC9191647 (2019).

Settings: monkeys (Macaca mulatta), i.v. 0.2 mg/kg LSD; ref Axelrod et al., 1957; cited from earlier work

CCN(CC)C(=O)[C@@H]1C=C2c3cccc4[nH]cc(c34)C[C@H]2N(C)C1 [LSD, D-lysergic acid diethylamide]
plasma concentrations of LSD: > 250 ng/mL
